Patent US4694007A (priority 1986, dated 1987)

Biological target: T1, PC DHFR (Pneumocystis carinii, UniProt P16184)
T1 sequence (P16184 1-206): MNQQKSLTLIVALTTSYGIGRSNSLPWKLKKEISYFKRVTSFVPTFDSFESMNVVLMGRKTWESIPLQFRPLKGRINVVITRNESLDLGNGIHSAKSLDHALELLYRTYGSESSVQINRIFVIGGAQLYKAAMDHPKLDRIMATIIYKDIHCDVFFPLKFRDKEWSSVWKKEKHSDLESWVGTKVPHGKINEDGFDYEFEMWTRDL

COc1cc(NCc2ccc3nc(N)nc(N)c3c2C)cc(OC)c1OC [Trimetrexate, 2,4-diamino-5-methyl-6-[(3,4,5-trimethoxyanilino)methyl]quinazoline]
Ability to compete with methotrexate for PC DHFR binding: considerably more potent
